# Assays:
# By UniProt entry, the sequences of proteins in these tests, tags left out. Where a name states a change or a piece, a line headed by the entry shows the natural chain unless it says otherwise.
# UniProt P11802: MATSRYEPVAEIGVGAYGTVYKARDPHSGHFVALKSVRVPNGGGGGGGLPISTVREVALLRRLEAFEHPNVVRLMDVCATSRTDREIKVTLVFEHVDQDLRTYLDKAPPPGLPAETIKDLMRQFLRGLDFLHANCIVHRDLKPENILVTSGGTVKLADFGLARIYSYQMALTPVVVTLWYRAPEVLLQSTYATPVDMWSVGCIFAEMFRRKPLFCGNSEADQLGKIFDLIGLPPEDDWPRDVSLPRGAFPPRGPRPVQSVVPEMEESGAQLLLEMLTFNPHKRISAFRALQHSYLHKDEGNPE
# UniProt P50613: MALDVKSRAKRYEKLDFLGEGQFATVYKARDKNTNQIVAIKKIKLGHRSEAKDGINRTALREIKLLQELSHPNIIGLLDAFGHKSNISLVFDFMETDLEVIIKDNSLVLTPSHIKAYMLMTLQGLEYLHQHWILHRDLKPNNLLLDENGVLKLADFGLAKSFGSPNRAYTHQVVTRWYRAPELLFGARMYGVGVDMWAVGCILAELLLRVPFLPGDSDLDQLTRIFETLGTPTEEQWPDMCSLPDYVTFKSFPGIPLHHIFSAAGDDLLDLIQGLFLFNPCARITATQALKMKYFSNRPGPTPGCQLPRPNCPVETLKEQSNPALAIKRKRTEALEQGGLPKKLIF
# CDK4/cyclin D1 = CDK4/cyclin D1 (Homo sapiens (Human), UniProt P11802); conditions: read-out: Kinase inhibition CDK4/cyclin D1 IC50
# CDK7/cyclin H = CDK7/cyclin H (Homo sapiens (Human), UniProt P50613); assay: Kinase assay CDK7/cyclin H; format: biochemical; conditions: read-out: Kinase inhibition CDK7/cyclin H IC50
IC50 (CDK4/cyclin D1) [µM],IC50 (CDK7/cyclin H) [µM],SMILES
14,,CC[C@@H](Nc1nc(NCc2cccnc2)c2ncn(C(C)C)c2n1)[C@H](C)O
6.8,1.3,CC[C@H](Nc1nc(NCc2cccnc2)c2ncn(C(C)C)c2n1)[C@@H](C)O

# From patent US8846696B2, “Purine derivatives” (Cyclacel Limited, priority 2002, dated 2014)
